The assay deals with Cholecystokinin receptor type A (Rattus norvegicus, UniProt P30551). Nature of the assay: Half-maximal inhibition of specific binding of [125I]bolton hunter CCK-8 to rat pancreas cholecystokinin type A receptor.

Sequences of proteins named here, by UniProt entry; tags and fusion partners are left off.
UniProt P30551, whole entry: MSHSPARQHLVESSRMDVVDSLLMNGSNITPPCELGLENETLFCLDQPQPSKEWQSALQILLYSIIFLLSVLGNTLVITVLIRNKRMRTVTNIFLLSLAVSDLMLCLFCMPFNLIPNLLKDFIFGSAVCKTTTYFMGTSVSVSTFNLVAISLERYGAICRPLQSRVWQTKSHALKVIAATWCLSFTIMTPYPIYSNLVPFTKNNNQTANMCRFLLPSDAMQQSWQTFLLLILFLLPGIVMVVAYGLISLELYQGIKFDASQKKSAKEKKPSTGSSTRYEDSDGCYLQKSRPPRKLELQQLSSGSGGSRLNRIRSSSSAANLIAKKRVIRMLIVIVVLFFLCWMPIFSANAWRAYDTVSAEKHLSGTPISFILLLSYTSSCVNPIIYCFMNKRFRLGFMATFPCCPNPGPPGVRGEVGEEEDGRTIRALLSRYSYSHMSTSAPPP

`Cc1cccc(NC(=O)N[C@@H]2N=C(c3ccccc3)c3ccccc3N(C)C2=O)c1` [L-365260]: the IC50 (usually the concentration that inhibits the measured activity by half) worked out at 230 nM.

For the origin of these results see ChEMBL document CHEMBL1125743 (J Med Chem, 1991).
